Source: PubChem BioAssay AID602224 (National Center for Advancing Translational Sciences (NCATS), 2012)
The entries are a selection whose mix differs from that of the whole data set. Inconclusive results are not listed. Active and inactive are the calls of the source. Calls follow the shape of the dose curve; as a rule, active = well fitted inhibition curve with a large enough effect; inconclusive = small, poorly fitted or top-dose-only effect, or another doubt; inactive = no such curve, though single readings can be large or run the other way.

Test: qHTS Assay for the Inhibitors of L3MBTL1: Hit Validationin AlphaScreen Counterscreen; also: 0% is about no effect
Details: signal inhibition; at 57.1 µM (top of the series)
Description: The histone code is comprised of many post-translational modifications that occur mainly in histone tail peptides. The identity and location of these marks are read by a variety of histone binding proteins that are emerging as important regulators of cellular differentiation and development and are increasingly being implicated in numerous disease states. Small molecule probes that disrupt the interaction between histone binding proteins and chromatin would enable a systematic chemical biology study of proteins that read the histone code and could potentially reveal new targets for drug discovery. However, no such small molecules are known. This dearth of quality molecular probes can largely be attributed to the novelty of the target class and the lack of screening assays. […]
Biotinylated hexahistidine (b-His6) (PerkinElmer, Waltham, MA) will be added to 1,536-well plates in a 3 uL dispense. […] Streptavidin-coated donor and nickel chelate acceptor AlphaScreen beads will be added (1 uL) for final concentrations of 10 ug/mL each bead and 1 nM b-His6, and plates read as described above (qHTS assay) after a 30 min incubation at room temperature in the dark

CCc1nc2c(n1)c1c(non1O)c1c2no[n+]1[O-]
activity change, negative = inhibition: inactive: 46.6%
